In test [1] the target is CETP (Homo sapiens, UniProt P11597). Kind of test: In vitro CETP assay: 3H-labeled CE transfer from HDL to VLDL/LDL in human plasma. As to conditions: read-out: in vitro IC50 (μM) human plasma (24 h pre-incubation), 24 h pre-incubation at 37° C. As for the experimental part: Human blood was obtained from healthy male volunteers using 0.1% EDTA as an anticoagulant, and centrifuged at 3,000 rpm for 15 minutes at 4° C. Human plasma was pooled, and then used for the preparation of ^3H-labeled HDL or stored at −80° C. for CETP assay until use. The ^3H-labeled HDL was prepared with human plasma as described by Glenn and Melton (Methods in enzymology. 263; 339-351, 1996). The specific gravity of plasma was measured by a hydrometer, and the density was adjusted to 1.125 g/mL by adding solid KBr. After centrifugation at 100,000 rpm for 4 hours at 12° C. (rotor: 100.4, Optima TLX, Beckman), d>1.125 g/mL fraction was dialyzed against 4 L of Tris-saline-EDTA buffer (TSE; 50 mmol/L Tris, 150 mmol/L NaCl, 2 mmol/L EDTA, pH7.4) for 18 hours at 4° C. […] The radioactivity of ^3H-labeled HDL was counted in a liquid scintillation counter. ^3H-labeled HDL was stored at 4° C. until use.
CETP activity was determined as the rate of ^3H-labeled CE transfer from donor HDL to acceptor VLDL/LDL. […] After centrifugation at 3,000 rpm for 10 minutes at room temperature, the radioactivity of the supernatant was counted in a liquid scintillation counter. CETP activity was determined as the difference of the radioactivity between the samples incubated at 37° C. and 4° C. as follows: % inhibition=100−{dpm (DMSO at 4° C.−test compounds at 37° C.)/dpm (DMSO at 4° C.−DMSO at 37° C.)}×100. […]

Sequences of proteins named here, by UniProt entry; tags and fusion partners are left off. Residues count along the entry.
UniProt P11597, 18-493 limits assumed: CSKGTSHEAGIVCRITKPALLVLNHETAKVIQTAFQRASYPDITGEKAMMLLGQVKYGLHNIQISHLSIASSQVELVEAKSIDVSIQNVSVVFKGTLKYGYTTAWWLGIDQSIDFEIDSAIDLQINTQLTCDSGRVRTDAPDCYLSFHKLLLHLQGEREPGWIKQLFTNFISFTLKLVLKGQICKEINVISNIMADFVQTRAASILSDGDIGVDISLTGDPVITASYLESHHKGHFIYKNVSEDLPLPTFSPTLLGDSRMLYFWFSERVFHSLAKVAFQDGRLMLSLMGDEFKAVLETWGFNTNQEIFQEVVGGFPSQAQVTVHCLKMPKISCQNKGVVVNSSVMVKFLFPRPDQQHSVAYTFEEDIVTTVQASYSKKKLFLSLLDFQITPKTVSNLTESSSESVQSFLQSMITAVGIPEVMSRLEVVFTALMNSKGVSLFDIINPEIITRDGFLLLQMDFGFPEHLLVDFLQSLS

For test [2], the system named is CETP. As to the kind of experiment: Ex vivo serum CETP activity after oral administration to hamsters. The following applies: 3 mg/kg oral, suspension in 0.5% CMC, serum 3 hours after administration. As for the experimental part: Syrian Golden hamsters were used for the experiment after 1-week acclimatization. After an overnight fast, animals were orally given the compound suspension in 0.5% sodium carboxymethylcellulose in a volume of 10 mL/kg. Under deep anesthesia with ether, blood was collected from the abdominal aorta 3 hours after the administration. For preparation of serum, the collected blood was transferred to a plastic tube containing a clot activator, left still for 15 minutes at room temperature and centrifuged. Serum CETP activities were determined immediately.
Ninety-five μL serum were added to 5 μL of […] sodium phosphate buffered saline (pH 7.0) containing 1.5 mM 5,5′-dithio-bis(2-nitrobenzoic acid) in two 96-well V-bottom plates. One plate was incubated at 4° C. and the other was incubated at 37° C. […] Total cholesterol (TC) and free cholesterol (FC) in supernatant were measured using commercial kits (Cholesterol E-test wako, and Free Cholesterol E-test wako; Wako pure chemical). Cholesteryl ester (CE) was calculated by subtracting FC from TC. CETP activity was determined by the following formula: CETP activity=[CETP transfer]*/[CE value in 4° C. incubation sample] *CETP transfer=[CE value in 4° C. incubation sample]−[CE value in 37° C. incubation sample] […]

What is called IC50 is the concentration at which inhibition is half-maximal. `CC[C@@H]1C[C@H](N(Cc2cc(C(F)(F)F)cc(C(F)(F)F)c2)c2ncc(OCCCC(=O)O)cn2)c2cc(C(F)(F)F)ccc2N1C(=O)OCCCOC(C)=O`: the IC50 at CETP [1] was 0.11 µM. Besides, the “ex vivo (% inhibition) 3 mg/kg (CMC)” value in the test with CETP [2] was found to be 25.4%.

The values are drawn from US11642344B2, “Cholesteryl ester transfer protein (CETP) inhibitor and pharmaceutical compositions comprising said inhibitor for use in the treatment or prevention of cardiovascular diseases” (NewAmsterdam Pharma B.V., priority 2014, dated 2023).
